Assay results from patent US10967068B2, “Stability-modulating linkers for use with antibody drug conjugates” (priority 2014, dated 2021).
Where “and” joins values, the source holds several entries; their conditions need not be identical. Equal values may be shown once. Read-outs that look alike come from different tables or passages of the source.

Experiments:
[1] = In Vitro Stability Assay—Mouse Plasma; assay type: in vitro ADME; settings: for Conjugate stability (%): % DAR remaining after plasma 3 or 4.5 days
[2] = 4.5 d
[3] = tag LCQ04 on Trop2 antibody, 9 mg/kg
[4] = 9 mg/kg
[5] = 4.5 d; remark: listed apart in the source

With `CC[C@H](C)[C@@H]([C@@H](CC(=O)N1CCC[C@H]1[C@H](OC)[C@@H](C)C(=O)N[C@@H](Cc1ccccc1)c1nccs1)OC)N(C)C(=O)[C@@H](NC(=O)C(C)(C)NC(=O)OCc1ccc(NC(=O)[C@H](CCCNC(N)=O)NC(=O)[C@@H](NC(=O)[C@H](CCCCN)NC(=O)CO)C(C)C)cc1)C(C)C` [Example 25, N˜2˜-(hydroxyacetyl)-L-lysylvalyl-N-{4-[(8S,11S,12R)-11-[(2S)-butan-2-yl]-12-(2-{(2S)-2-[(1R,2R)-1-methoxy-2-methyl-3-oxo-3-{[(1S)-2-phenyl-1-(1,3-thiazol-2-yl)ethyl]amino}propyl]pyrrolidin-1-yl}-2-oxoethyl)-5,5,10-trimethyl-3,6,9-trioxo-8-(propan-2-yl)-2,13-dioxa-4,7,10-triazatetradec-1-yl]phenyl}-N˜5˜-carbamoyl-L-ornithinamide] as the compound, how does the “DAR after plasma incubation for 3 to 4.5 days” value (shortened to “DAR after plasma incubation”) ([1]; attachment position L11B) read?
Its value is 1.61.

For AcLys-vc0101 [Example 11], which “Conjugate stability In Vitro in Cyno Plasma (% DAR remaining), H7C” value ([2]; tag H7C) is on record?
Its value is 99%.

What about the “Conjugate stability In Vitro in Cyno Plasma (% DAR remaining), H8A” value ([2]; tag H8A) of the same compound?
Its value is 100%.

And the “Conjugate stability In Vitro in Cyno Plasma (% DAR remaining), H10” value ([2]; tag H10)?
Its value is 99%.

And the “Conjugate stability In Vitro in Cyno Plasma (% DAR remaining), H16” value ([2]; tag H16)?
Its value is 100%.

And the “Conjugate stability In Vitro in Cyno Plasma (% DAR remaining), L11B/C” value ([2]; tag L11B/C)?
The value was 97%.

And the “Conjugate stability In Vitro in Cyno Plasma (% DAR remaining), LCQ04” value ([2]; tag LCQ04)?
The value was 100%.

And the “Conjugate stability In Vitro in Cyno Plasma (% DAR remaining), TG6” value ([2]; tag TG6)?
The value was 99%.

What about the “Conjugate Stability In Vitro in Mouse Plasma (% DAR remaining), N297A” value [1] of the same compound?
Its value is 100%.

And the “DAR after plasma incubation” value ([1]; attachment position H7C)?
The value was 1.61.

And the “Conjugate stability (%)” value ([1]; attachment position H7C)?
The value was 85%.

What about the “DAR after plasma incubation” value ([1]; attachment position H8A) of the same compound?
The value was 1.34.

What about the “Conjugate stability (%)” value ([1]; attachment position H8A) of the same compound?
Its value is 73%.

What about the “DAR after plasma incubation” value ([1]; attachment position H10) of the same compound?
Its value is 1.50.

And the “Conjugate stability (%)” value ([1]; attachment position H10)?
Its value is 92%.

And the “DAR after plasma incubation” value ([1]; attachment position L11B)?
The value was 1.22.

And the “Conjugate stability (%)” value ([1]; attachment position L11B)?
Its value is 65%.

What about the “DAR after plasma incubation” value ([1]; attachment position LCQ04) of the same compound?
Its value is 1.85.

What about the “Conjugate stability (%)” value ([1]; attachment position LCQ04) of the same compound?
Its value is 99%.

And the “Conjugate Stability In Vitro in Mouse Plasma (% DAR remaining), H7C” value ([1]; tag H7C, 4.5 d)?
The value was 85%.

And the “Conjugate Stability In Vitro in Mouse Plasma (% DAR remaining), H8A” value ([1]; tag H8A, 4.5 d)?
Its value is 73%.

And the “Conjugate Stability In Vitro in Mouse Plasma (% DAR remaining), H10” value ([1]; tag H10, 4.5 d)?
Its value is 92%.

What about the “Conjugate Stability In Vitro in Mouse Plasma (% DAR remaining), H16” value ([1]; tag H16, 4.5 d) of the same compound?
The value was 100%.

What about the “Conjugate Stability In Vitro in Mouse Plasma (% DAR remaining), L11B/C” value ([1]; tag L11B/C, 4.5 d) of the same compound?
The value was 65%.

What about the “Conjugate Stability In Vitro in Mouse Plasma (% DAR remaining), LCQ04” value ([1]; tag LCQ04, 4.5 d) of the same compound?
The value was 99%.

What about the “Conjugate Stability In Vitro in Mouse Plasma (% DAR remaining), TG6” value ([1]; tag TG6, 4.5 d) of the same compound?
The value was 92% and 94%.

And the “Conjugate Stability In Vitro in Mouse Plasma (% DAR remaining), TG6” value ([1]; tag TG6 on Trop2 antibody, 3 d)?
Its value is 93% and 94%.

What about the “Conjugate Stability In Vivo in Mouse (% DAR remaining), LCQ04” value ([3]; 3 d) of the same compound?
The value was 95%.

What about the “Conjugate Stability In Vivo in Mouse (% DAR remaining), LCQ04” value ([3]; 10 d) of the same compound?
Its value is 80%.

And the “Conjugate Stability In Vivo in Rat (% DAR remaining), N297A” value ([4]; rat, in vivo)?
Its value is ~100%.

And the “Conjugate Stability In Vivo in Rat (% DAR remaining), H8A” value ([4]; tag H8A on Trop2 antibody, 14 d)?
The value was 94%.

What about the “Conjugate Stability In Vivo in Rat (% DAR remaining), H10” value ([4]; tag H10 on Trop2 antibody, 14 d) of the same compound?
Its value is 98%.

And the “Conjugate Stability In Vivo in Rat (% DAR remaining), L11B/C” value ([4]; tag L11B/C on Trop2 antibody, 14 d)?
Its value is 88%.

And the “Conjugate Stability In Vivo in Rat (% DAR remaining), LCQ04” value ([4]; tag LCQ04 on Trop2 antibody, 14 d)?
Its value is 94%.

And the “Conjugate Stability In Vitro in Rat Plasma (% DAR remaining), H7C” value ([5]; tag H7C)?
Its value is 98%.

And the “Conjugate Stability In Vitro in Rat Plasma (% DAR remaining), H8A” value ([5]; tag H8A)?
The value was 100%.

And the “Conjugate Stability In Vitro in Rat Plasma (% DAR remaining), H10” value ([5]; tag H10)?
The value was 98%.

And the “Conjugate Stability In Vitro in Rat Plasma (% DAR remaining), H16” value ([5]; tag H16)?
Its value is 100%.

And the “Conjugate Stability In Vitro in Rat Plasma (% DAR remaining), L11B/C” value ([5]; tag L11B/C)?
The value was 96%.

And the “Conjugate Stability In Vitro in Rat Plasma (% DAR remaining), LCQ04” value ([5]; tag LCQ04)?
Its value is 99%.

What about the “Conjugate Stability In Vitro in Rat Plasma (% DAR remaining), TG6” value ([5]; tag TG6) of the same compound?
Its value is 99%.
